BindingDB's records for doi:10.1016/S0893-133X(96)00187-X (University of Toronto, 1997)

Target: 5-hydroxytryptamine receptor 2A (Rattus norvegicus) (UniProt P14842)

Ki: 280 nM
Compound: CC1CCN(CCCC(=O)c2ccc(F)cc2)CC1 [CAS_3575-80-2]
